Assay results from ChEMBL document CHEMBL2069197 (ACS Med Chem Lett, 2012).

Test: Half life in aqueous media at pH 7
Settings: buffer

Structure (SMILES): C/C(=N\OC(=O)[C@@H]1CCCN1)[C@H]1CC[C@H]2[C@@H]3CCC4=CC(=O)CC[C@]4(C)[C@H]3CC[C@]12C
- t1/2: 52 min
